Assay results: ChEMBL document CHEMBL1671788, “Discovery, synthesis, and structure-activity relationship development of a series of N-(4-acetamido)phenylpicolinamides as positive allosteric modulators of metabotropic glutamate receptor 4 (mGlu(4)) with CNS exposure in rats” (J Med Chem, 2011)

Amino acid sequences for entries named in this document (tags omitted). A change or cut given only in a name is not applied to a line headed by its entry.
UniProt Q14833: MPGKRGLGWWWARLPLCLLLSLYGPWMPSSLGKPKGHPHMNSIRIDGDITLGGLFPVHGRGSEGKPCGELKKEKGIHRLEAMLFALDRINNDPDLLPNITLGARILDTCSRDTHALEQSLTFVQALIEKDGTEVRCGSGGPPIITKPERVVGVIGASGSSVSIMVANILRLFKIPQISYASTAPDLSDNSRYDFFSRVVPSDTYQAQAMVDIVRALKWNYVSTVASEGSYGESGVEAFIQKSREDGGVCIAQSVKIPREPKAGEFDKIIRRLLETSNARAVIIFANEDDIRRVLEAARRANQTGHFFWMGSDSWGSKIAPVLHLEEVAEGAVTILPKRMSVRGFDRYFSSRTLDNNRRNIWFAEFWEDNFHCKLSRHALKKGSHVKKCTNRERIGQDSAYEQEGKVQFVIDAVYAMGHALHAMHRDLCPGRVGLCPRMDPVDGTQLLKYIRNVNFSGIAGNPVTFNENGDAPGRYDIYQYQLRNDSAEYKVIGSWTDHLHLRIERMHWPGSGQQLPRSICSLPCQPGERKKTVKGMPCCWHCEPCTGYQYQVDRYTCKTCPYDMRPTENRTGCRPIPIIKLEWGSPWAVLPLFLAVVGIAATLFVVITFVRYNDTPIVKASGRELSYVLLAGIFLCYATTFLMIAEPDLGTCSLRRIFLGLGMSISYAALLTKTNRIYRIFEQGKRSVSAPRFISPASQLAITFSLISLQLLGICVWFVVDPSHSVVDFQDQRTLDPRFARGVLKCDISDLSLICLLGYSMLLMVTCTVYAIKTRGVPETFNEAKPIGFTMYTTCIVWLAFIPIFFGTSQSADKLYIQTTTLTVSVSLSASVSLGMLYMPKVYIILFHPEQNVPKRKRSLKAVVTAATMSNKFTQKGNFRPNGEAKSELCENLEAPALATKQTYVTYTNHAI

Target: Metabotropic glutamate receptor 4 (Homo sapiens, UniProt Q14833)
Experiment: Positive allosteric modulation of human mGluR4 expressed in CHO cells coexpressing Gqi5 assessed as calcium mobilization
Type: functional, cell-based

| SMILES | EC50 [nM] |
| --- | --- |
| COc1cc(NC(=O)c2ccccn2)ccc1NC(=O)c1ccccc1Cl | 99.5 |
| O=C(Nc1ccc(NC(=O)c2ccccc2Cl)c(F)c1)c1ccccn1 | 556 |
